According to PMC10540216, “Activity Guided Azide-methyllysine Photo-trapping for Substrate Profiling of Lysine Demethylases” (Journal of the American Chemical Society, 2023):

System: KDM4A-I71AzF
Assay: CASI: photo-crosslinking with HEK293T cell extracts, StrepTactin enrichment and LC-MS/MS proteomics;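 further: lysates from HEK293T cells pretreated with a KDM4 inhibitor to raise proteome methylation, affinity-purified after ±UV, gel-resolved, trypsin-digested, with exclusive unique peptides per protein averaged per condition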
Type: binding, human
Details: sheet "Final results but with 0.01"

B1: NUP93_HUMAN (protein, UniProt Q8N1F7 1-819, looked up)
Nuclear pore complex protein …: MDTEGFGELLQQAEQLAAETEGISELPHVERNLQEIQQAGERLRSRTLTRTSQETADVKASVLLGSRGLDISHISQRLESLSAATTFEPLEPVKDTDIQGFLKNEKDNALLSAIEESRKRTFGMAEEYHRESMLVEWEQVKQRILHTLLASGEDALDFTQESEPSYISDVGPPGRSSLDNIEMAYARQIYIYNEKIVNGHLQPNLVDLCASVAELDDKSISDMWTMVKQMTDVLLTPATDALKNRSSVEVRMEFVRQALAYLEQSYKNYTLVTVFGNLHQAQLGGVPGTYQLVRSFLNIKLPAPLPGLQDGEVEGHPVWALIYYCMRCGDLLAASQVVNRAQHQLGEFKTWFQEYMNSKDRRLSPATENKLRLHYRRALRNNTDPYKRAVYCIIGRCDVTDNQSEVADKTEDYLWLKLNQVCFDDDGTSSPQDRLTLSQFQKQLLEDYGESHFTVNQQPFLYFQVLFLTAQFEAAVAFLFRMERLRCHAVHVALVLFELKLLLKSSGQSAQLLSHEPGDPPCLRRLNFVRLLMLYTRKFESTDPREALQYFYFLRDEKDSQGENMFLRCVSELVIESREFDMILGKLENDGSRKPGVIDKFTSDTKPIINKVASVAENKGLFEEAAKLYDLAKNADKVLELMNKLLSPVVPQISAPQSNKERLKNMALSIAERYRAQGISANKFVDSTFYLLLDLITFFDEYHSGHIDRAFDIIERLKLVPLNQESVEERVAAFRNFSDEIRHNLSEVLLATMNILFTQFKRLKGTSPSSSSRPQRVIEDRDSQLRSQARTLITFAGMIPYRTSGDTNARLVQMEVLMN
Fold change (+UV/-UV): 0.6667
